Results: patent US7714023B2 (dated 2010)

The chains behind the UniProt entries cited, without tags or fusion partners.
UniProt P23977, whole entry: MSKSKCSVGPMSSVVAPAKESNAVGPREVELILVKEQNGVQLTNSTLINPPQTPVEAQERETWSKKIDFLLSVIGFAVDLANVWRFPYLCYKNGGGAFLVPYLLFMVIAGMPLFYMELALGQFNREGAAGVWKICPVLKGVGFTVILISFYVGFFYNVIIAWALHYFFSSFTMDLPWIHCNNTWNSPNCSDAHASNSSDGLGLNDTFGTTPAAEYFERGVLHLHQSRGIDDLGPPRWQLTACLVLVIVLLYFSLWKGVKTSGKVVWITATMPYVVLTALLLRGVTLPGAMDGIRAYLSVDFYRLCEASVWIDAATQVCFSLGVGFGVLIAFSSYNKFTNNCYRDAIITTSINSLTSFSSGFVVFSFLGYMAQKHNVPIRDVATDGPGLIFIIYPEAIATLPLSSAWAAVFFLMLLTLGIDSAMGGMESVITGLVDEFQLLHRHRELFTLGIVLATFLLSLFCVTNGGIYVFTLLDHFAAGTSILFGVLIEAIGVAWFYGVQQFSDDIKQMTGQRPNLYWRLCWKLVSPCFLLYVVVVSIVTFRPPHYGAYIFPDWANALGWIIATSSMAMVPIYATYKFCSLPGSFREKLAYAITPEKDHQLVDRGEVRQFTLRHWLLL

Biological target: DA transporter (Rattus norvegicus, UniProt P23977)
Experiment: DA transporter binding, rat striatum, [3H]GBR12935
Settings: Transporter and Muscarinic Receptor Binding IC50 DA, Table 2, ten concentrations

**Q.** `CN(C)CCCC1(c2ccc(F)cc2)OCc2cc(C#N)ccc21` (racemic) [reference compound] was tested. Which IC50 did it give?
**A.** 84.4 µM
